Test results as given in patent US20230174468A1, “SULFATED PILLARARENES, METHODS OF MAKING SAME, AND USES THEREOF” (priority 2007, published 2023).

Test system: fentanyl-induced hyperlocomotion
Assay: Lower doses of P6AS, naloxone and TetM1 as countermeasures to fentanyl-induced hyperlocomotion, Experiment #2
Settings: 15 minute reversal; fentanyl 0.1 mg/kg; P6AS 15 and 5 mg/kg, TetM1 11.81 mg/kg, Naloxone 1 mg/kg

C=CCN1CC[C@]23c4c5ccc(O)c4O[C@H]2C(=O)CC[C@@]3(O)[C@H]1C5
comparison of reversal between countermeasures (locomotion counts): no statistically significant differences
